This is an account of results in patent publication US9797889B2, “Activation of bioluminescence by structural complementation” (Promega Corporation, priority 2013, dated 2017).

For the experiment, the target named is FRB and FKBP (Homo sapiens, UniProt P42345+P62942). In words: Rapamycin-induced FRB/FKBP interaction with NLpoly/NLpep fusions in HEK293T cells (Examples 65-76). The note with it: 50 nM rapamycin 2 h, FRB-NLpoly with FKBP-NLpep.

B1: 5A2: 5A2 non-luminescent mutant generated in Example 6 (SEQ ID NOS: 539 and 540) (protein)
chain: MVFTLEDFVGDWRQTAAYNLDQVLEQGGVSSLFQNLAVSVTPIQRIVLSGENALKIDIHVIIPYEGLSADQMAQIEKIFKVVYPVDDHHFKVILHYGTLVIDGVTPNMIDYFGRPYEGIAVFDGKKITVTGTLWNGNKIIDERLINPDGSLLFRVTINV
Regarding B1, the “rapamycin induction of luminescence” value is listed as “greater rapamycin induction relative to NLpoly5P”.
